Tested on: response to OVA immunization
Assay: OVA immunization of mice treated with HSA-Tregitope conjugates or free maleimide-Tregitope
Type: in vivo, mouse
Details: female C57BL/6 mice, OVA day 0 (CFA) and day 14 (IFA), sacrifice Day 17; splenocytes stimulated with OVA
Protocol: The effect on the response to OVA immunization of preformed conjugate HSA-Tregitope therapeutics and a free-maleimide-Tregitope peptide is evaluated. The latter free-maleimide peptide forms a conjugation in vivo after injection via the reactive maleimide group to the free-Cys34 of the subject's endogenous HSA. 5 mgs of the MPA-P2 and MPA-P12 is used as free-MPA-Tregitope, with the unconjugated HSA in the sample being accounted for by calculating the molar ratio of conjugated to unconjugated HSA.
Mice (female C57BL/6) are immunized s.c. with 50 mg ovalbumin (OVA) on day 0 (CFA) and day 14 (IFA). The preformed HSA conjugate treatments is administered with the OVA in CFA on day 0. Test groups include OVA/HSA-P2-high and OCA/HSA-P2-low. […]
For T-cell proliferation and characterization assays, splenocyte samples are evaluated for induction of FoxP3 expression in TCR Tg cells and for the suppression of OVA specific T cell proliferation (in response to OVA peptide in vitro) by CFSE dilution. […]
Antigen-specific T cell proliferation is evaluated by CFSE dilution. […] Cells are be fixed, permeabilized and stained for FoxP3 expression and analyzed by flow cytometry. […]
Anti-OVA antibodies in serum from the bleeds harvested on day 17 are evaluated in serum by ELISA, including a serial dilution plot and a standard ELISA to determine antibody concentrations. […]

HSA: recombinant human serum albumin (Albucult), carrier and HSA-only control
IFNγ production (IFNγ/IL2 and IFNγ/IL17 fluorospot): inhibited less

From patent publication US20210308182A1, “REGULATORY T CELL EPITOPES” (EpiVax Inc., priority 2020, published 2021)
